Ab-14 light chain CDR variants: yeast mating affinities

Data: MIT Lincoln Laboratory AlphaSeq set, Li et al. 2023, doi:10.1038/s41467-023-39022-2, as distributed in FLAb.

Antigen: PDVDLGDISGINAS, a 14-residue peptide of the SARS-CoV-2 spike HR2 region.

Parent scFv Ab-14: VH joined to VL by three GGGGS repeats. Changes lie in the light chain CDRs alone.
VH: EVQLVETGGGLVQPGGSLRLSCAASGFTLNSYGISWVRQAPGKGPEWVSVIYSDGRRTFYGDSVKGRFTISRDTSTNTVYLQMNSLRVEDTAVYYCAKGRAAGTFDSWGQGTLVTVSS
VL: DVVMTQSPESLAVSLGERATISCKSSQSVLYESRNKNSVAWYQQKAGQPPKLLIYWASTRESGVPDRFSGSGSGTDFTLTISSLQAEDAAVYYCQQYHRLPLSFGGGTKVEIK

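Phage display of a naive human antibody library on the peptide gave the parent. These sequences belong to a second round, designed from the earlier measurements on random variants of the parent. Several design methods are mixed in this list. In AlphaSeq, yeast of one mating type display the scFv and yeast of the other type display the target. Mating (16 h, 30 °C) was followed by selection of diploids and sequencing of their barcodes. The ratio of observed to expected reads was calibrated, replicate by replicate, on BCL2-family standards whose Kd was known from biolayer interferometry. There are six technical replicates.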

The parent's light chain CDRs are KSSQSVLYESRNKNSVA, WASTRES, QQYHRLPLS; each variant's own CDRs replace them letter for letter.
This list holds designs with more than six substitutions.
Values are log10 of the apparent Kd in nM; lower means stronger binding.
The mean shown is taken over the replicates in which the pair was detected.
Where no diploid with the target was found in any replicate, the entry reads "nd": below detection, most likely a poor binder, though not proof of it.
The authors' rule: three or more of the six replicates give a measured affinity, fewer mean a poor binder.
A sequence measured in both rounds can read differently, since the two assays cover different ranges.
Of ten entries with the parent sequence, four were seen in most replicates (averages 0.34 to 2.37), three in one and three in none, so single entries are noisy.
Three control strains display no target. For all light chain designs, 4% of the pairings with them gave a signal, with a median of 2.64 and one signal in twenty below 1.59, so weak values seen in few replicates may be background. Also given: how often the same scFv was detected with the empty control strains.

Variant HIGLVTELEAKVSNSVA / NNSTREE / QQYDRLPLS gave 2.08 (5 of 6 replicates; controls 0 of 18). With HMQNEWQGNSRAENNVA / EGTVVCD / QQYATLPLQ the result was 1.29 (6 of 6 replicates; controls 0 of 18). For MISQLMNMGQFAINSVA / QASIRNE / QQYDRLPLG, the assay gave 1.66 (5 of 6 replicates; controls 2 of 18). Variant KVSQSNPYESRNANSVA / NASQRCS / QQYHRLPLS gave 0.47 (6 of 6 replicates; controls 1 of 18). Variant KLSWKSLHGDLRWSAVA / NEVVRLA / QQYFRLPIQ showed nd (0 of 6 replicates; controls 0 of 18).

Variant KIQHLTYFENEGEWSVA / DANTSVL / QDYFRLPLS gave 2.55 (1 of 6 replicates; controls 0 of 18). For KISGSHLYESRNWNAVA / EASQRES / QQYHRLPLS, the assay gave 0.46 (6 of 6 replicates; controls 0 of 18). For SMSNLQILPDVWKNSIA / DAEHVEY / QQYSRLPLT, the assay gave 0.36 (6 of 6 replicates; controls 0 of 18). With KSSQSYDYEDRNSNSVA / NASQREH / QQYHRLPLS the result was 0.32 (6 of 6 replicates; controls 3 of 18). Variant KLSMITGHLSMIKNNVA / EMETREN / QQYERLPLS showed 0.45 (6 of 6 replicates; controls 1 of 18).

Variant HITYGMMVAGRHSKSIA / QAETRAK / QQYDRLPLI showed 1.56 (6 of 6 replicates; controls 1 of 18). With ILYDSVGTLSRNKNSVA / DNSTREP / QQYDRLPLS the result was 0.63 (6 of 6 replicates; controls 1 of 18). For KLYMSTGYESRNKDSIA / DNSTRGR / QQYYRLPLS, the assay gave 0.97 (6 of 6 replicates; controls 1 of 18). Variant KFGQMVLTGAYVSNSVA / QSNTREN / QQYHRLPLS showed 0.53 (6 of 6 replicates; controls 1 of 18). With KLSQQNKYESRMKNSVA / NASQREL / QQYHRLPLS the result was -0.07 (6 of 6 replicates; controls 0 of 18).

Variant IFSQTVMYESTMRNNVA / QTSTRES / QQYDRLPLS gave 0.58 (6 of 6 replicates; controls 1 of 18). Variant KLYQSMGYLSHNKNSIA / DMDRREN / QQYHRLPLS gave 0.18 (6 of 6 replicates; controls 0 of 18). Variant IVSQLMLWGMHAKNSIA / EAETRIN / QQYHRLPLF showed 1.23 (3 of 6 replicates; controls 0 of 18). For TISQLHNMGTFAINSVA / QAEIRNA / QQYDRLPLQ, the assay gave 1.37 (6 of 6 replicates; controls 0 of 18). For TLTQVQGMESHNENSVA / DLSTRGS / QQYHRLPLS, the assay gave 0.58 (6 of 6 replicates; controls 2 of 18).

Variant KMSQSVPYEERNWNSVA / NASKRLS / QQYHRLPLS gave 0.00 (6 of 6 replicates; controls 1 of 18). With KVQQMWLYESRNCNSVA / NASQREE / QQYHRLPLS the result was 0.63 (6 of 6 replicates; controls 0 of 18). With QFSNVNMQGNAMWANVA / EATYAEE / QQYARLPLQ the result was 1.35 (1 of 6 replicates; controls 0 of 18). For KISQMFTYESTWHNAIA / QTSEREE / QQYHRLPFS, the assay gave 1.07 (6 of 6 replicates; controls 4 of 18). Variant MISSVMGINNMYQSSVA / QAEERVE / QQYDRLPLA gave 2.30 (3 of 6 replicates; controls 0 of 18).

For KFFQSQLYEQRNQNSVA / SASTRLS / QQYHRLPLS, the assay gave 1.47 (6 of 6 replicates; controls 0 of 18). Variant MLENKPTSFLNNKDAIA / DDEASTS / QQYDRLPLS showed nd (0 of 6 replicates; controls 0 of 18). With IVSQLMLWGMHAKNSIA / EAETRTN / QQYERLPLF the result was 0.84 (5 of 6 replicates; controls 0 of 18). With TISQMLLMQTSHKNSVA / GEETRYS / QQYHRLPLS the result was 0.79 (6 of 6 replicates; controls 0 of 18). Variant NIGMTLNMLEHKQNNVA / DLVTREN / QQYHRLPLS gave 0.71 (6 of 6 replicates; controls 0 of 18).

With MLTMFANENAGKSKNIA / DTNNLNT / QQYQRLPFM the result was 0.62 (6 of 6 replicates; controls 1 of 18). Variant MISQLFMYGTRNYNSIA / QASTREK / QQYDRLPLI gave 0.93 (6 of 6 replicates; controls 2 of 18). Variant MMSQVTGMESKHRNNVA / QTSTREP / QQYDRLPLI gave 1.45 (4 of 6 replicates; controls 1 of 18). For MIQYGQERDSEHYNSIA / NDHEVSK / QQYYRLPLV, the assay gave 2.08 (5 of 6 replicates; controls 0 of 18). Variant KLTQTMRFEQKKKNNIA / EVTTRTK / QQYNRLPLA showed 2.65 (5 of 6 replicates; controls 0 of 18).

With KLEEEADVITEIGHSVA / EMSMVMD / QQYHRLPLA the result was 1.04 (6 of 6 replicates; controls 1 of 18). Variant HISMLTLQGMRHRNSVA / QMTTREN / QQYDHLPLS gave 1.95 (3 of 6 replicates; controls 0 of 18). With KYQQSVLTEDRNKNSVA / NASTRES / QDYHQLPLS the result was 0.43 (6 of 6 replicates; controls 4 of 18). Variant RLRELNFYSGNARNNIA / DAHIHEV / QQYSWLPLF gave 1.33 (6 of 6 replicates; controls 1 of 18). Variant MIAESVGYQSKNKNSVA / DNSTRED / QCYDRLPLS showed nd (0 of 6 replicates; controls 0 of 18).

Variant TISQMFLGESRNRNSVA / QASTRES / QAYDRLPLS showed 1.41 (6 of 6 replicates; controls 3 of 18). Variant TLVQSVMGSSRTKNSVA / NAETREY / QHYHRLPLS gave 0.91 (6 of 6 replicates; controls 3 of 18). Variant HISMLTLQGMRQRNSVA / QMTTREN / QQYDRLPLA showed 0.74 (6 of 6 replicates; controls 2 of 18). Variant KLSMVTGHQLMHKDNVA / EMVTREN / QQYNRLPLS gave 0.20 (6 of 6 replicates; controls 0 of 18). Variant KVSMSVNYLQRNFNSVA / QASQRES / QQYHRLPLS showed 0.35 (6 of 6 replicates; controls 1 of 18).

Variant ILEENADVITEIGNSIA / ETNMVRS / QQYHRLPLA showed 2.08 (5 of 6 replicates; controls 0 of 18). Variant QLHAYTQGFKRADGNIA / DISYRVT / QQYGRLPLS showed 1.32 (6 of 6 replicates; controls 4 of 18). Variant MFSQLIYTGSRARNAVA / QAETRVN / QQYHHLPLI showed 1.10 (6 of 6 replicates; controls 0 of 18).

For reference, 5 entries of the list once more:

CDR-L1,CDR-L2,CDR-L3,mean log10 Kd (nM),replicates with signal,control signals
IVSQLMLWGMHAKNSIA,EAETRIN,QQYHRLPLF,1.23,3 of 6,0 of 18
KISQMFTYESTWHNAIA,QTSEREE,QQYHRLPFS,1.07,6 of 6,4 of 18
MISSVMGINNMYQSSVA,QAEERVE,QQYDRLPLA,2.30,3 of 6,0 of 18
KVSMSVNYLQRNFNSVA,QASQRES,QQYHRLPLS,0.35,6 of 6,1 of 18
KLSMVTGHQLMHKDNVA,EMVTREN,QQYNRLPLS,0.20,6 of 6,0 of 18